Results taken from PubChem BioAssay (NCI).
Where “and” joins values, the source holds several entries; their conditions need not be identical. Equal entries are not always repeated. This is a selection; strong and weak results do not stand in their true shares.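 48-hour exposure, single concentration, 96-well plates; percent growth endpoint where 0 means no net growth. Active: below 10.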 Calls of active or inactive are those of the source.

Assays:
Assay in all cases: NCI-60 one-dose screen, 48 h (100 = growth as untreated, 0 = no growth, -100 = all killed)
Conditions in all cases: 10 µM unless noted
SK-MEL-2 melanoma = system: SK-MEL-2 melanoma
EKVX NSCLC = system: EKVX NSCLC
SN12C renal = system: SN12C renal
UO-31 renal = system: UO-31 renal
TK-10 renal = system: TK-10 renal
ACHN renal = system: ACHN renal
CAKI-1 renal = system: CAKI-1 renal
A498 renal = system: A498 renal
HL-60(TB) leukemia = system: HL-60(TB) leukemia
CCRF-CEM leukemia = system: CCRF-CEM leukemia

Measured: growth

ClCCN(Cc1ccc(Cl)cc1)Cc1ccc(Cl)cc1
inactive: SK-MEL-2 melanoma 80.1% | EKVX NSCLC 64.7% | SN12C renal 94.2% | UO-31 renal 80.3% | TK-10 renal 102% | ACHN renal 71.1% | CAKI-1 renal 94.5% | A498 renal 101% | HL-60(TB) leukemia 67.9% | CCRF-CEM leukemia 39.7%

CC(Cl)CN(CC(C)Cl)C(=O)OCC(N)C(=O)O (stereo not given)
inactive: SK-MEL-2 melanoma 94.6% and 83.1% | EKVX NSCLC 107% and 98.9% | SN12C renal 96.6% and 92.1% | UO-31 renal 80.7% and 88.7% | TK-10 renal 101% and 99.8% | ACHN renal 105% and 98.9% | CAKI-1 renal 95.4% | A498 renal 104% and 105% | HL-60(TB) leukemia 111% and 94.3% | CCRF-CEM leukemia 96.2% and 103%

CC(=O)Nc1ccc([As](=O)(O)O)cc1
inactive: SK-MEL-2 melanoma 83.8% | EKVX NSCLC 93.4% | SN12C renal 94.4% | UO-31 renal 84.7% | TK-10 renal 101% | ACHN renal 97.6% | CAKI-1 renal 62.9% | A498 renal 139% | HL-60(TB) leukemia 106% | CCRF-CEM leukemia 105%

COC1OC(CNCCCl)C2OC(C)(C)OC12 (stereo not given)
inactive: SK-MEL-2 melanoma 86.4% | EKVX NSCLC 160% | SN12C renal 104% | UO-31 renal 93.3% | TK-10 renal 124% | ACHN renal 108% | CAKI-1 renal 98.7% | A498 renal 110% | HL-60(TB) leukemia 108% | CCRF-CEM leukemia 121%

ClP1(Cl)=NP(Cl)(Cl)=NP(Cl)(Cl)=N1
inactive: SK-MEL-2 melanoma 97% | EKVX NSCLC 97.9% | SN12C renal 101% | UO-31 renal 81.4% | TK-10 renal 99.6% | ACHN renal 89.2% | CAKI-1 renal 92.4% | A498 renal 118% | HL-60(TB) leukemia 84.9% | CCRF-CEM leukemia 102%

Cc1ccccc1OP(=O)(Cl)Oc1ccccc1C
inactive: SK-MEL-2 melanoma 92.8% | EKVX NSCLC 110% | SN12C renal 93.7% | UO-31 renal 85.3% | TK-10 renal 93.8% | ACHN renal 104% | CAKI-1 renal 103% | A498 renal 93.6% | HL-60(TB) leukemia 98.1%

CCCC1OP(N)(=O)OCC1CC (stereo not given)
inactive: SK-MEL-2 melanoma 104% and 108% | EKVX NSCLC 117% and 101% | SN12C renal 107% and 100% | UO-31 renal 80.9% and 102% | TK-10 renal 108% and 101% | ACHN renal 113% and 106% | CAKI-1 renal 106% and 103% | A498 renal 110% and 101% | HL-60(TB) leukemia 119% and 102% | CCRF-CEM leukemia 87.8% and 115%

CCOP(=O)(Nc1ccc(C)cn1)OCC
inactive: SK-MEL-2 melanoma 107% | EKVX NSCLC 109% | SN12C renal 105% | UO-31 renal 94.4% | TK-10 renal 123% | ACHN renal 107% | CAKI-1 renal 112% | A498 renal 89.5% | HL-60(TB) leukemia 75.1% | CCRF-CEM leukemia 101%

O=[N+]([O-])c1ccc(-c2cc([N+](=O)[O-])c(O)c([N+](=O)[O-])c2)cc1
inactive: SK-MEL-2 melanoma 103% and 96.2% | EKVX NSCLC 92.5% and 94.2% | SN12C renal 97% and 103% | UO-31 renal 82.5% and 84.2% | TK-10 renal 104% and 106% | ACHN renal 93.7% and 100% | CAKI-1 renal 98% and 95% | A498 renal 101% and 96.1% | HL-60(TB) leukemia 99.9% | CCRF-CEM leukemia 99.8%

O=P(Nc1ncccn1)(N1CC1)N1CC1
inactive: SK-MEL-2 melanoma 119% | EKVX NSCLC 91.1% | SN12C renal 92.5% | UO-31 renal 96.6% | TK-10 renal 111% | ACHN renal 107% | CAKI-1 renal 89% | A498 renal 82% | HL-60(TB) leukemia 107% | CCRF-CEM leukemia 103%

O=Cc1sc(N(CCCl)CCCl)nc1Cl
inactive: SK-MEL-2 melanoma 102% | EKVX NSCLC 104% | SN12C renal 106% | UO-31 renal 85.8% | TK-10 renal 109% | ACHN renal 95.8% | CAKI-1 renal 92.9% | A498 renal 96.8% | HL-60(TB) leukemia 78.4% | CCRF-CEM leukemia 91.8%

Cc1nn(Cc2ccccc2)c(C)c1C1(O)C[C@H](CC#N)OC1=O (stereo not given in full)
inactive: SK-MEL-2 melanoma 101% | EKVX NSCLC 104% | SN12C renal 109% | UO-31 renal 109% | TK-10 renal 158% | ACHN renal 109% | CAKI-1 renal 121% | A498 renal 135% | HL-60(TB) leukemia 127% | CCRF-CEM leukemia 105%

Nc1ccccc1[As](=O)(O)c1ccccc1
inactive: SK-MEL-2 melanoma 104% | EKVX NSCLC 107% | SN12C renal 106% | UO-31 renal 71.3% | TK-10 renal 100% | ACHN renal 107% | CAKI-1 renal 105% | A498 renal 113% | HL-60(TB) leukemia 85.6% | CCRF-CEM leukemia 42.8%

O=c1ccc(Oc2ccc([N+](=O)[O-])cc2[N+](=O)[O-])nn1-c1ccc([N+](=O)[O-])cc1[N+](=O)[O-]
inactive: SK-MEL-2 melanoma 92.8% | EKVX NSCLC 97.7% | TK-10 renal 68.4% | A498 renal 96.6%
active: SN12C renal -85.2% | UO-31 renal -89.6% | ACHN renal -78.9% | CAKI-1 renal -93.5% | HL-60(TB) leukemia -13.3%

O=[As](O)(c1ccc(O)cc1)c1ccccc1O
inactive: SK-MEL-2 melanoma 102% | EKVX NSCLC 94% | SN12C renal 97.1% | UO-31 renal 92.5% | TK-10 renal 94.3% | ACHN renal 99.1% | CAKI-1 renal 98.1% | A498 renal 101% | HL-60(TB) leukemia 95.5% | CCRF-CEM leukemia 90.5%

CCOC(=O)CCNCCSP(=O)(O)O
inactive: SK-MEL-2 melanoma 118% | EKVX NSCLC 94.4% | SN12C renal 108% | UO-31 renal 91% | TK-10 renal 101% | ACHN renal 108% | CAKI-1 renal 104% | A498 renal 79.2% | HL-60(TB) leukemia 169% | CCRF-CEM leukemia 107%

CCN(CCCl)Cc1ccccc1
inactive: SK-MEL-2 melanoma 91.1% | EKVX NSCLC 113% | SN12C renal 95% | UO-31 renal 89.2% | TK-10 renal 101% | ACHN renal 101% | CAKI-1 renal 115% | A498 renal 99.8% | HL-60(TB) leukemia 88.5% | CCRF-CEM leukemia 82.3%

CCOP(=O)(Nc1ccccc1)OCC
inactive: SK-MEL-2 melanoma 101% | EKVX NSCLC 113% | SN12C renal 104% | UO-31 renal 82.1% | TK-10 renal 101% | ACHN renal 102% | CAKI-1 renal 102% | A498 renal 95.2% | HL-60(TB) leukemia 104% | CCRF-CEM leukemia 96.5%

CCOC(=O)Nc1ccc([As](=O)(O)O)c(O)c1
inactive: SK-MEL-2 melanoma 128% | EKVX NSCLC 99.6% | SN12C renal 102% | UO-31 renal 102% | TK-10 renal 116% | ACHN renal 108% | CAKI-1 renal 93.9% | A498 renal 122% | HL-60(TB) leukemia 80.3% | CCRF-CEM leukemia 96.8%

Nc1ccc([As](=O)(O)c2ccc(N)cc2)cc1
inactive: SK-MEL-2 melanoma 119% | EKVX NSCLC 105% | SN12C renal 110% | UO-31 renal 75.4% | TK-10 renal 102% | ACHN renal 92% | CAKI-1 renal 87.2% | A498 renal 111% | HL-60(TB) leukemia 77.9%

[N-]=[N+]=NS(=O)(=O)c1ccc([N+](=O)[O-])cc1
inactive: SK-MEL-2 melanoma 103% | EKVX NSCLC 101% | SN12C renal 97.9% | UO-31 renal 92.9% | TK-10 renal 115% | ACHN renal 108% | CAKI-1 renal 89.2% | A498 renal 85.2% | HL-60(TB) leukemia 99.9%

COc1cc([N+](=O)[O-])c([N+](=O)[O-])cc1N
inactive: SK-MEL-2 melanoma 107% | EKVX NSCLC 92.6% | SN12C renal 101% | UO-31 renal 95.1% | TK-10 renal 98.4% | ACHN renal 102% | CAKI-1 renal 105% | A498 renal 91.8% | HL-60(TB) leukemia 78% | CCRF-CEM leukemia 88.5%

O=[As]c1ccc(S(=O)(=O)Nc2ccccc2)cc1 (stereo not given)
inactive: SK-MEL-2 melanoma 16.6% | EKVX NSCLC 103% | SN12C renal 48.8% | UO-31 renal 27.6% | TK-10 renal 21.1% | ACHN renal 75% | CAKI-1 renal 38.7% | A498 renal 98.5%
active: HL-60(TB) leukemia -32.3% | CCRF-CEM leukemia -12.2%

O=[N+]([O-])N=C1NCCN1
inactive: SK-MEL-2 melanoma 103% and 112% | EKVX NSCLC 101% and 110% | SN12C renal 113% and 101% | UO-31 renal 100% and 86.7% | TK-10 renal 91.7% and 111% | ACHN renal 108% and 106% | CAKI-1 renal 88.2% and 89.8% | A498 renal 91.2% and 99.7% | HL-60(TB) leukemia 89.9% and 132% | CCRF-CEM leukemia 48.7% and 104%

O=[N+]([O-])c1cccc(Oc2ccc([N+](=O)[O-])cc2[N+](=O)[O-])c1
inactive: EKVX NSCLC 107% | SN12C renal 23.1% | UO-31 renal 20.1% | TK-10 renal 49.9% | ACHN renal 25.7% | A498 renal 105%
active: SK-MEL-2 melanoma -2.18% | CAKI-1 renal -3.1% | HL-60(TB) leukemia -10.2%

CCCOP(=S)(Nc1nc(N)cc(=O)[nH]1)OCCC
inactive: SK-MEL-2 melanoma 99.4% | EKVX NSCLC 98.9% | SN12C renal 95.4% | UO-31 renal 81.9% | TK-10 renal 97.1% | ACHN renal 98.1% | CAKI-1 renal 108% | A498 renal 96.1% | HL-60(TB) leukemia 92.3% | CCRF-CEM leukemia 93.1%

Cc1ccc(S(=O)(=O)n2cc([C@@]3(O)C[C@H](CC#N)OC3=O)c3ccccc32)cc1
active: HL-60(TB) leukemia -43.1% | CCRF-CEM leukemia 6.81%
inactive: SK-MEL-2 melanoma 36.3% | EKVX NSCLC 27.5% | SN12C renal 24.8% | UO-31 renal 20.3% | TK-10 renal 21.3% | ACHN renal 22.2% | CAKI-1 renal 18.2% | A498 renal 10.3%
